# Values quoted from earlier work in paper PMC7716884 (Science translational medicine, 2020).
# Experiments:
# [1] = not given; remark: listed apart in the source
substance,measurement,setting,value
insulin,Duration of action in humans,,4 h
same,Duration of action in pigs,[1],2 h
